The results in this text go back to patent US9949917B2, “Cosmetic composition comprising a combination of a sugar fatty acid ester with a plant extract of Waltheria indica or Pisum sativum for skin whitening” (Cognis IP Management GmbH, priority 2006, dated 2018).

Series [1] relates to B16 melanocytes. Kind of series: Amount of cellular proteins in parallel B16 cultures (harmlessness at the used dose).
Series [2] deals with Melanocytes (B16 cell line). Kind of series: Melanogenesis inhibition assay: number of viable cells by level of cellular proteins (Bradford's method).

In the case of “Sucrose laurate [Sucrose laurate of example 5]”, the “toxic effects judged by amount of cellular proteins (in words)” value in series [1] (at the concentrations of Tables 7bis and 8bis) is recorded as “do not show any toxic effects”. In addition, the “Amount of cellular proteins in %/control” value is given as 87 +/− 6 %/control in series [1] (sucrose laurate 0.005% (w/v) alone) and 86 +/− 7 %/control in series [1] (sucrose laurate 0.01% (w/v) alone). Also, in series [2] (at the doses of Tables 1 and 4), the “effect on the rate of viable B16 melanocytes (in words)” value is “have not modified”. The “Rate of cellular proteins in %/control” value in series [2] (sucrose laurate 0.0003% (w/v) alone, 3 assays) was 102 +/− 4 %/control; in series [2] (sucrose laurate 0.001% (w/v) alone, 2 assays (Table 4)) it was 90 +/− 9 %/control; in series [2] (sucrose laurate 0.001% (w/v) alone, 3 assays (Table 1)) it was 99 +/− 3 %/control.
